Measured values reported in BindingDB's records for doi:10.1176/jnp.8.2.223 (1996).

Amino acid sequences for entries named in this document (tags omitted).
UniProt P20288, whole entry: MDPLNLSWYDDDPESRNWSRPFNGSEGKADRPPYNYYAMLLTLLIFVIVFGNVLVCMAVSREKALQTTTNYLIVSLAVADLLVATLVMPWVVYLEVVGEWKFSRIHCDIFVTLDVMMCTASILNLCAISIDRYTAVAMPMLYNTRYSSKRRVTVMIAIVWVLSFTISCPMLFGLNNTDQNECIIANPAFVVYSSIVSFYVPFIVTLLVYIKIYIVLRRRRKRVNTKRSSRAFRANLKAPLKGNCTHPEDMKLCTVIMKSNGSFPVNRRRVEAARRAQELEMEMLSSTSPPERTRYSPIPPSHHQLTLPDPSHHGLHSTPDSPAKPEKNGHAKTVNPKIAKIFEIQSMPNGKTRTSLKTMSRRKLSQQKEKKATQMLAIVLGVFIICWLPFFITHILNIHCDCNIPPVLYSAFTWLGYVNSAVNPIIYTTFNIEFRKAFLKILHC

Target: D(2) dopamine receptor (Bos taurus, UniProt P20288)

CC(C)(C)[C@]1(O)CCN2C[C@H]3c4ccccc4CCc4cccc(c43)[C@@H]2C1
Ki: 0.55 nM
